This assay addresses T1, TAK1 (TAK1-TAB1) (Homo sapiens, UniProt O43318).
T1 construct: gene MAP3K7; constitutively active TAK1-TAB1 fusion (Promega V4088); with TAB1
T1 sequence (O43318 1-606): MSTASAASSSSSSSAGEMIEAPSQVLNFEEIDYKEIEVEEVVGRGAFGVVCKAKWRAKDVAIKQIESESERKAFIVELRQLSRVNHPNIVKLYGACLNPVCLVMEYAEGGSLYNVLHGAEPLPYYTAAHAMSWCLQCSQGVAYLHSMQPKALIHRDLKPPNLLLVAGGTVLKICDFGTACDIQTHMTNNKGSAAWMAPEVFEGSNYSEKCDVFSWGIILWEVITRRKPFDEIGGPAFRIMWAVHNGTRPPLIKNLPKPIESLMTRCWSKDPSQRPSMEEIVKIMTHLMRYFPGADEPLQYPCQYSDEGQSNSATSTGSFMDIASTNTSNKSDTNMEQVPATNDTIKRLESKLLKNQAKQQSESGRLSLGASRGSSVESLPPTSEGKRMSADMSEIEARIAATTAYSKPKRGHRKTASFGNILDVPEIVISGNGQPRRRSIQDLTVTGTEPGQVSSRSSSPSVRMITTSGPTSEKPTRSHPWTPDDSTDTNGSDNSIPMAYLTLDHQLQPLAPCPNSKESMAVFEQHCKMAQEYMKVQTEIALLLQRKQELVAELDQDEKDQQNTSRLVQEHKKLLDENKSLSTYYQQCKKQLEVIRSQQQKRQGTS
T1 sequence (Q15750 1-504 partner): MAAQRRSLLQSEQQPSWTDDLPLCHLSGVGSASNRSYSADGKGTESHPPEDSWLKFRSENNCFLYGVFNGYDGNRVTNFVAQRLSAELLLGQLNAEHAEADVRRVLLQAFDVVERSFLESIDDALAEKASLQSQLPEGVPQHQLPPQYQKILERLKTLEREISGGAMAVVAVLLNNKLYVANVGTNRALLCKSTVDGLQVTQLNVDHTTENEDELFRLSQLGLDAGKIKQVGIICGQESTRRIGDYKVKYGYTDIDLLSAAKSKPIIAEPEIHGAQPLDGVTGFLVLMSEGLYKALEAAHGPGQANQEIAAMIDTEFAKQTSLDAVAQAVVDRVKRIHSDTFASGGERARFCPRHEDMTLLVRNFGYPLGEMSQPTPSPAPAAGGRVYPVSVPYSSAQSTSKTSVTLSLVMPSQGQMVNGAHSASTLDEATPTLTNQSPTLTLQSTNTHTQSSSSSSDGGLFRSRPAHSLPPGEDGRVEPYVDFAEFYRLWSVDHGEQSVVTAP
Briefly: ADP-Glo in vitro kinase assay, MBP substrate, 30-min preincubation. It counts as biochemical.

Compound `COc1cc(O)c2c(c1)/C=C/C[C@H](O)[C@H](O)C(=O)/C=C\C[C@H](C)OC2=O` [5Z7O, 5Z-7-oxozeaenol] yielded an IC50 of 86 nM.

The record behind these values is paper PMC8416565, “Inhibition of the MAP2K7-JNK pathway with 5Z-7-oxozeaenol induces apoptosis in T-cell acute lymphoblastic leukemia” (Oncotarget, 2021).
